Data taken from ChEMBL document CHEMBL3627674, “Discovery of wrightiadione as a novel template for the TrkA kinase inhibitors” (Bioorg Med Chem Lett, 2015).

Sequences of proteins named here, by UniProt entry; tags and fusion partners are left off. A change or cut given only in a name is not applied to a line headed by its entry.
UniProt P35968, whole entry: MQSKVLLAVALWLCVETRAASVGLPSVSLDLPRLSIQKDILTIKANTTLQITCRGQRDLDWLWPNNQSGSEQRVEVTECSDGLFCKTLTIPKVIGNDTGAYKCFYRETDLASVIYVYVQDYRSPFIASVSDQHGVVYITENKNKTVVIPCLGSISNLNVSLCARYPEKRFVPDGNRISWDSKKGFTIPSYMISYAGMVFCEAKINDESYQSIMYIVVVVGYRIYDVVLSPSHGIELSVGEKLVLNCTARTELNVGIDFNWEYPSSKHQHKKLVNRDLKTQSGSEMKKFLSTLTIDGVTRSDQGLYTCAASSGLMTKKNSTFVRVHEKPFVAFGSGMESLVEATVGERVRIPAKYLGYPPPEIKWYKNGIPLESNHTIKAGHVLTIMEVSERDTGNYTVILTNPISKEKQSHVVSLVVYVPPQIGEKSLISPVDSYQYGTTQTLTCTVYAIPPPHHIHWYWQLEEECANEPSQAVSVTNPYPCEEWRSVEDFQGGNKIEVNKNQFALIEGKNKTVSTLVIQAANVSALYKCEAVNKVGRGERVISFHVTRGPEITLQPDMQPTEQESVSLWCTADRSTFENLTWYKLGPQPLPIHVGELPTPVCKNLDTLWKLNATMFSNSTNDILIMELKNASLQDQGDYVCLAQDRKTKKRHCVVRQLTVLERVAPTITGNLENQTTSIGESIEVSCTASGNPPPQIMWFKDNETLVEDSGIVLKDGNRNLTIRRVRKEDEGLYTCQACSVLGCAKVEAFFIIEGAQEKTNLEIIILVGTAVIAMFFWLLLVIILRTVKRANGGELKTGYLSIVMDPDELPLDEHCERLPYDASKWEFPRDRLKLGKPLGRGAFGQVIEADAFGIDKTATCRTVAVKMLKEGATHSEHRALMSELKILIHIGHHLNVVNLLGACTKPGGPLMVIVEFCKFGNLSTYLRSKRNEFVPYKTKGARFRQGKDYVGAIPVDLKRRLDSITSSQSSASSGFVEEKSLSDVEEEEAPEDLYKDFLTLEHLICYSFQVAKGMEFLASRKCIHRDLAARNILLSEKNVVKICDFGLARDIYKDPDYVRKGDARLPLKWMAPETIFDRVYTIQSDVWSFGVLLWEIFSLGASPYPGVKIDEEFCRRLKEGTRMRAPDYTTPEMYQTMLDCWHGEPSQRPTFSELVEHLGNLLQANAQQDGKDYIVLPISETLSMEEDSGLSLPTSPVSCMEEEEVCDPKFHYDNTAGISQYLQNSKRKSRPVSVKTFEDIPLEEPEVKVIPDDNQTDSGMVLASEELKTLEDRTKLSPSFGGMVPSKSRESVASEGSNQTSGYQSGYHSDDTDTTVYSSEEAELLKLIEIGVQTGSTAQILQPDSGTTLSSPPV
UniProt P48736: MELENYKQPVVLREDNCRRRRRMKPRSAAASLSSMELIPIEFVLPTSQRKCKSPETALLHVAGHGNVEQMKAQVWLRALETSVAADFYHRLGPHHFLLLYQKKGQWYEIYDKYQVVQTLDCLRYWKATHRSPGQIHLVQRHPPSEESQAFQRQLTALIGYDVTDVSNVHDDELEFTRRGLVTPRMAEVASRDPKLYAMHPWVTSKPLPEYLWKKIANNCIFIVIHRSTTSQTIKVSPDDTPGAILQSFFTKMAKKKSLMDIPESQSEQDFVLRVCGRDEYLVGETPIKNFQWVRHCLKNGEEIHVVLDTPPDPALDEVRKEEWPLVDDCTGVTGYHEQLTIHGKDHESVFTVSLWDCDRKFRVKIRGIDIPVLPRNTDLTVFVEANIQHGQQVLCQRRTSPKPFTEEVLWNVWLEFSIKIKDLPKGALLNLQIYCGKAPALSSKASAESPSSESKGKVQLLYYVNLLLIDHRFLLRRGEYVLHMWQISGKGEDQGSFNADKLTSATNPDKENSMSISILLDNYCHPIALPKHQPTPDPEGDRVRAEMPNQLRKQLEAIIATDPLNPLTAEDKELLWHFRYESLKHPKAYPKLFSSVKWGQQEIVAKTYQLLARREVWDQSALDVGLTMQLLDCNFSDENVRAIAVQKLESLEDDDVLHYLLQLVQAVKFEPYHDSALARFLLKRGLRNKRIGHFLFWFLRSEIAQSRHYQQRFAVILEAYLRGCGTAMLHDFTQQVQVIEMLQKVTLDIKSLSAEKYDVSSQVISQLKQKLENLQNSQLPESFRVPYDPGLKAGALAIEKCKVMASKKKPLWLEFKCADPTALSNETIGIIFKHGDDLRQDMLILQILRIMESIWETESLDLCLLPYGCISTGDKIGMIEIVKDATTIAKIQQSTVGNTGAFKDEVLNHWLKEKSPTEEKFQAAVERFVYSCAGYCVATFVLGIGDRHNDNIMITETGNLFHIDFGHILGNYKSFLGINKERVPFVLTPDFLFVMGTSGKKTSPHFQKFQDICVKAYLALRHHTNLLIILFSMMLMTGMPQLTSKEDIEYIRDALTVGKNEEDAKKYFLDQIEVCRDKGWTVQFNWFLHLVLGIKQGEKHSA
UniProt P49137, whole entry, looked up: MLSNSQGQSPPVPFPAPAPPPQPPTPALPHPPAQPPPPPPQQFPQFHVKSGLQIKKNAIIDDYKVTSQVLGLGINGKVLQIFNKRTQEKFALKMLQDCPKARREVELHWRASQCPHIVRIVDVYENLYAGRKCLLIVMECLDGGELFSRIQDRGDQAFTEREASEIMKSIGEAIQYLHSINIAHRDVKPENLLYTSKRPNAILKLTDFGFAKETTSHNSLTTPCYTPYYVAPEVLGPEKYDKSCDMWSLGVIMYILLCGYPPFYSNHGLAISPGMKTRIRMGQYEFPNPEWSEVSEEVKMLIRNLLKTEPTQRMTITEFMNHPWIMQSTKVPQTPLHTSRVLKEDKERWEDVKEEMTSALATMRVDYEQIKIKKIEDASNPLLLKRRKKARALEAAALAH
UniProt P42336, whole entry: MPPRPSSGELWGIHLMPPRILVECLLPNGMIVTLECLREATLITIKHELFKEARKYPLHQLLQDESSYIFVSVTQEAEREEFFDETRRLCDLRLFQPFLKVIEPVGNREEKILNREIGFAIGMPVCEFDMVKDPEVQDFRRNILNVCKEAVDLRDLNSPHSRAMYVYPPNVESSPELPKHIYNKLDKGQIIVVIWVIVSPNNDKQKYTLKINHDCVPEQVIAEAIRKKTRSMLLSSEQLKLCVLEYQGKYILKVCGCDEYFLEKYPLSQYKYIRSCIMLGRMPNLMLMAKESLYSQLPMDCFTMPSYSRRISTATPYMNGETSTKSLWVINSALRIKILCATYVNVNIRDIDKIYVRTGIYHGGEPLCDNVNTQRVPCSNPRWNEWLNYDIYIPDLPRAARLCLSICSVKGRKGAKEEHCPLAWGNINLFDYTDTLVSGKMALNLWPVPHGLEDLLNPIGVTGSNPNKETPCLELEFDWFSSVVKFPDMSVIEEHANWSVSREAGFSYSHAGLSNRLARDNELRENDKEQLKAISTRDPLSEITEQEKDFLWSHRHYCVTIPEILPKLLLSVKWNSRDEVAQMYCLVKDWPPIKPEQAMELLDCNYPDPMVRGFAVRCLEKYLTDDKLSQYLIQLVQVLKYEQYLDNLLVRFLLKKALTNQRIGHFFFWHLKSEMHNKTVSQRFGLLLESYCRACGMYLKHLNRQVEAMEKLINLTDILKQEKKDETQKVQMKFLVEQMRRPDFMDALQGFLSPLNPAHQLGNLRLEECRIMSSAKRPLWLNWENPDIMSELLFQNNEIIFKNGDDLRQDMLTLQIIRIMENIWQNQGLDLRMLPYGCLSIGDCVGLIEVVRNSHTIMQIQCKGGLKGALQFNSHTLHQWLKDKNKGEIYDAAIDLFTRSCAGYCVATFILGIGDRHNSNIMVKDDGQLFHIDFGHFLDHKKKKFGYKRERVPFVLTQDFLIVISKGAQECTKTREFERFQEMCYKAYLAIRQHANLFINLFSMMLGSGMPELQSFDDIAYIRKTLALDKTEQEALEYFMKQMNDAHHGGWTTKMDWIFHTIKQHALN
UniProt P78368: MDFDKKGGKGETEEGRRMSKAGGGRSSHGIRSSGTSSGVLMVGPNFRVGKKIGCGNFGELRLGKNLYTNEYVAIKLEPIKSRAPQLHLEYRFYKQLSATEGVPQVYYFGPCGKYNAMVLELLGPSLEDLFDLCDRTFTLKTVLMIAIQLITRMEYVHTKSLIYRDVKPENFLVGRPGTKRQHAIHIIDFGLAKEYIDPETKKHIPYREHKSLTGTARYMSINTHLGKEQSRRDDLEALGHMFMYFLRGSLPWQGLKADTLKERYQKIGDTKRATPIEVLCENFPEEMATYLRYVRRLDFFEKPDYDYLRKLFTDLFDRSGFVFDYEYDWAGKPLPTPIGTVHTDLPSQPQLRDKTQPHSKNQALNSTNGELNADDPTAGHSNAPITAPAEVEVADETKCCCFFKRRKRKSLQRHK

Tests used:
AKT1 (Homo sapiens) = assay: Inhibition of AKT1 (unknown origin) assessed as remaining activity at 10 uM by high-throughput assay relative to control
AKT2 (Homo sapiens) = assay: Inhibition of AKT2 (unknown origin) assessed as remaining activity at 10 uM by high-throughput assay relative to control
IGF1R (Homo sapiens) = assay: Inhibition of IGF1R (unknown origin) assessed as remaining activity at 10 uM by high-throughput assay relative to control
[1] = biological target: Vascular endothelial growth factor receptor 2 (Homo sapiens) (UniProt P35968); assay: Inhibition of VEGFR2 (unknown origin) assessed as remaining activity at 10 uM by high-throughput assay relative to control
[2] = biological target: Phosphatidylinositol 4,5-bisphosphate 3-kinase catalytic subunit gamma isoform (Homo sapiens) (UniProt P48736); assay: Inhibition of PIK3CG (unknown origin) assessed as remaining activity at 10 uM by high-throughput assay relative to control
[3] = biological target: MAP kinase-activated protein kinase 2 (Homo sapiens) (UniProt P49137); assay: Inhibition of MAPKAPK2 (unknown origin) assessed as remaining activity at 10 uM by high-throughput assay relative to control
[4] = biological target: T1, Serine/threonine-protein kinase STK11 (Homo sapiens) (UniProt Q15831); assay: Inhibition of LKB1 (unknown origin) assessed as remaining activity at 10 uM by high-throughput assay relative to control
T1 sequence (whole entry): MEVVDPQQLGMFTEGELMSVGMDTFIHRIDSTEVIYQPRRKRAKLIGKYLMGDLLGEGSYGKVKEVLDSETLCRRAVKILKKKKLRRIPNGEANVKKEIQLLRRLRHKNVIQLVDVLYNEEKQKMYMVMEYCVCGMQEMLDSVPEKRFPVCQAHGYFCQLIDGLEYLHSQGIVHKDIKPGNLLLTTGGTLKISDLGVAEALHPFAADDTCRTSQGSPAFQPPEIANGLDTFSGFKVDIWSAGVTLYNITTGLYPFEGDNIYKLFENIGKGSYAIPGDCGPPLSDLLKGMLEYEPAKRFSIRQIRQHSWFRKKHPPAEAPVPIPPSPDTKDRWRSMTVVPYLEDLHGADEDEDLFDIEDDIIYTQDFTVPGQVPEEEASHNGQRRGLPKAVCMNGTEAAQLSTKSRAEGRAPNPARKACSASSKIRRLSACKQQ

[5] = biological target: Phosphatidylinositol 4,5-bisphosphate 3-kinase catalytic subunit alpha isoform (Homo sapiens) (UniProt P42336); assay: Inhibition of PIK3CA (unknown origin) assessed as remaining activity at 10 uM by high-throughput assay relative to control
[6] = biological target: Casein kinase I isoform gamma-2 (Homo sapiens) (UniProt P78368); assay: Inhibition of CSNK1G2 (unknown origin) assessed as remaining activity at 10 uM by high-throughput assay relative to control
[7] = biological target: T2, TGF-beta receptor type-1 (Homo sapiens) (UniProt P36897); assay: Inhibition of TGFBR1 (unknown origin) assessed as remaining activity at 10 uM by high-throughput assay relative to control
T2 sequence (whole entry): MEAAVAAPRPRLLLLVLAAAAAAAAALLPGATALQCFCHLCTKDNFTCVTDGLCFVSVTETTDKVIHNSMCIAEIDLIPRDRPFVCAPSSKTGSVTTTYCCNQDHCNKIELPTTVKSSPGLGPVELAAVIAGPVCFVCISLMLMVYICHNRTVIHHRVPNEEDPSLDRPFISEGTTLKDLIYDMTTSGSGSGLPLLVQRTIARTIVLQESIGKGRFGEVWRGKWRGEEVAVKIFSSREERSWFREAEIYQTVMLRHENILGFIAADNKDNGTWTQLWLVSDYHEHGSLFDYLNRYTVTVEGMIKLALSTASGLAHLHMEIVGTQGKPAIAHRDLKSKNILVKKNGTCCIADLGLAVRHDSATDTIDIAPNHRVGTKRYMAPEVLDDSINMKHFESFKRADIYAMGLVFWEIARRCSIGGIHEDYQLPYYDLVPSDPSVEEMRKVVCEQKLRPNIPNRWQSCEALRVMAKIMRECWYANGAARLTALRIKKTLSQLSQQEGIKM

**Q.** With `O=C1c2ccccc2-c2c1oc1ccccc1c2=O` as the compound, how does the Activity (AKT1 (Homo sapiens)) read?
**A.** Its Activity is 88%.

**Q.** What about the Activity (AKT2 (Homo sapiens)) of the same compound?
**A.** The Activity was 81%.

**Q.** What about the Activity (IGF1R (Homo sapiens)) of the same compound?
**A.** Its Activity is 86%.

**Q.** What about the Activity [1] of the same compound?
**A.** Its Activity is 88%.

**Q.** What about the Activity [2] of the same compound?
**A.** Its Activity is 86%.

**Q.** What about the Activity [3] of the same compound?
**A.** The Activity was 88%.

**Q.** What about the Activity [4] of the same compound?
**A.** Its Activity is 88%.

**Q.** What about the Activity [5] of the same compound?
**A.** The Activity was 81%.

**Q.** What about the Activity [6] of the same compound?
**A.** The Activity was 81%.

**Q.** And the Activity [7]?
**A.** Its Activity is 81%.
